Results as given in US20040132045A1 (MERCK, published 2004).

By UniProt entry, the sequences of proteins in these tests, tags left out. Where a name states a change or a piece, a line headed by the entry shows the natural chain unless it says otherwise.
UniProt Q8MJ88: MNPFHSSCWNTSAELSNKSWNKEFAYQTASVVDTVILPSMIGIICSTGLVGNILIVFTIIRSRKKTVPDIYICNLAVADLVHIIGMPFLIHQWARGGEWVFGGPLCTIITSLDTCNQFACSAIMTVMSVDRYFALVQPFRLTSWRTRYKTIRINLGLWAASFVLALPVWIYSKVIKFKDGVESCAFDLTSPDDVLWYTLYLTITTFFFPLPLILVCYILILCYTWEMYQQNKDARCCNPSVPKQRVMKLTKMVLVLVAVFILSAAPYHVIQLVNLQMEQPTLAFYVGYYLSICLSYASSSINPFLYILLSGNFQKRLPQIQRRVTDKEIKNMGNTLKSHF
UniProt P20382: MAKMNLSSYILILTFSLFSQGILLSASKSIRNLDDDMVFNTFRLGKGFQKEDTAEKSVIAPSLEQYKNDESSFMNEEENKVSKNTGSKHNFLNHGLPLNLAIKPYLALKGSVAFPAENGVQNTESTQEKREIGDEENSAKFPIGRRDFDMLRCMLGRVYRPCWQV

Biological target: T1, rhesus monkey MCH-2R (melanin-concentrating hormone type 2 receptor) (rhesus monkey, UniProt Q8MJ88 1-340)
T1 construct: also called rhesus MCH-2R
Test: displacement of 100 pM [125I]-[Phe13, Tyr19]-MCH from HEK293T cells expressing rhesus MCH-2R, filtration
Description: HEK293T cells transfected with pEF1/V5-H is C/MCH-2R plasmid were harvested by phosphate-buffered saline containing 2 mM EDTA 48 hours after transfection, and washed once with the assay buffer (Hanks' balanced salt solution containing 20 mM HEPES, 0.2% BSA and 100 μg/ml bacitracin, pH 7.4). The cells (4×10⁵ cells/tube) were then incubated in 250 μl/tube of the same buffer with 100 pM [¹²⁵I]-[Phe¹³, Tyr¹⁹]-MCH for 30 minutes at 37° C. After the incubation, bound and free [¹²⁵I]-[Phe¹³, Tyr¹⁹]-MCH were separated by filtration using a Unifilter GF/B glass filter (Packard Instrument) presoaked with 0.3% polyethylenimine. The remaining radio activity on the filter was quantitated using a TopCount HTS (Packard instrument) with a Microscint 0 scintillation cocktail (Packard instrument). Specific binding was defined as the difference between total binding and nonspecific binding in the presence of 1 μM cold [Phe¹³, Tyr¹⁹]-MCH. Data were analyzed using GraphPad Prism Version 3.0.
IC₅₀ values of MCH and [Phe¹³, Tyr¹⁹]-MCH in this experiment were calculated as 9.9 and 3.8 nM, respectively.

IC50: 9.9 nM
B1: Melanin-concentrating hormone (MCH) (peptide, UniProt P20382 147-165, looked up)
peptide: DFDMLRCMLGRVYRPCWQV
modifications: cyclic (as printed: 'cyclic 19-amino acid neuropeptide')
notes: mature; also called cold MCH; MCH unlabeled peptide
